{
  "source": "paper PMC3588188",
  "about": "“Interactions between Human Liver Fatty Acid Binding Protein and Peroxisome Proliferator Activated Receptor Selective Drugs” (PPAR Research, 2013)",
  "molecular_target": "T1, human PPARα LBD (aa 196–468) (Homo sapiens, UniProt Q07869)",
  "T1 construct": "LBD of human PPARα (aa 196–468); [His]6 (N); made in house; host or cells: E. coli BL21 Codon Plus (DE3)-RIL (plasmid from Krister Bamberg, Astra-Zeneca)",
  "T1 sequence (Q07869 196-468)": "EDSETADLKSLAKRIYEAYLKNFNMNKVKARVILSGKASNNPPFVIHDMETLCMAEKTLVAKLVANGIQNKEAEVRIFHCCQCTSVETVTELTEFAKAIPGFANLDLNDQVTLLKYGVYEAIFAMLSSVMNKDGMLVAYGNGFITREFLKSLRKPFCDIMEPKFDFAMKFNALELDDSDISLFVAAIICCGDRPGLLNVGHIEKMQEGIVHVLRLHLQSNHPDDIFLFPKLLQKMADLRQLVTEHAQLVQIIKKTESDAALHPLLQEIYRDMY",
  "test": "cis-parinaric acid fluorescence displacement assay with PPARα LBD",
  "settings": "cis-parinaric acid (2 μM) displacement, LBD 1 μM; nd = no binding detected; read-out: Ki, PPARαLBD",
  "procedure": "Proteins were resolved using a step gradient of 0–300 mM imidazole in buffer A (50 mM Tris-HCl, pH 8.0; 500 mM NaCl; 0.5 mM ethylenediaminetetraacetic acid (EDTA); 1 mM dithiothreitol (DTT); 5% (v/v) glycerol) at a flow rate of 5 mL/min (4 column volumes (CVs) washout unbound sample; 0%–30% imidazole over 5 CVs; hold 30% for 2 CVs; 30%–100% imidazole over 5 CVs; hold 100% for 3 CVs).",
  "data": [
    {"compound": "Cc1nc(-c2ccc(C(F)(F)F)cc2)sc1C(=O)NCc1ccc(OC(C)(C)C(=O)O)cc1", "note": "[GW590735]", "values": [
      {"measurement": "Ki", "value": "60 ± 4", "unit": "nM"}
    ]}
  ]
}
